Measurements from patent publication US20160166648A1, “Treatment of Multiple Sclerosis With Combination of Laquinimod and Interferon-Beta” (Teva Pharmaceutical Industries, Ltd., priority 2011, published 2016).

Test system: MOG induced EAE in C57 BI mice
Assay: Interferon-β s.c. daily alone or in combination with laquinimod in chronic MOG induced EAE
Assay type: in vivo, C57BL/6 mice
Details: for Activity compared to Laquinimod: Table 6; for % inhibition 1 (incidence) / % inhibition 2 (MMS) / % inhibition 3 (GMS); Activity / % inhibition 3 (GMS): compared to vehicle
[1] = IFN-β 50,000 IU/mouse SC QD, listed as IFN beta
[2] = IFN-β 500,000 IU/mouse SC QD, Day 1 to 7 (prophylactic)
[3] = IFN-β 500,000 IU/mouse SC QD, listed as IFN beta
[4] = IFN-β 500,000 IU/mouse, Day 8 to 30 (therapeutic)

B1: Interferon beta-1a (protein, UniProt P01574 22-187, looked up)
Interferon beta: MSYNLLGFLQRSSNFQCQKLLWQLNGRLEYCLKDRMNFDIPEEIKQLQQFQKEDAALTIYEMLQNIFAIFRQDSSSTGWNETIVENLLANVYHQINHLKTVLEEKLEKEDFTRGKLMSSLHLKRYYGRILHYLKAKEYSHCAWTIVRVEILRNFYFINRLTGYLRN
notes: Interferon beta-1a (IFN-β) (Rebif®, 44 μg/0.5 ml/syringe)
Activity compared to Laquinimod (IFN beta 50,000 IU/mouse): 15% | Activity compared to Laquinimod (IFN beta 500,000 IU/mouse): 55% | GMS value (group mean score) (IFN-β 50,000 IU/mouse SC QD): 1.7 ± 1.0 | Incidence (IFN-β 50,000 IU/mouse SC QD): 11/13 | MMS value (mean maximal score) (IFN-β 50,000 IU/mouse SC QD): 2.6 ± 1.4 | Mean Duration (IFN-β 50,000 IU/mouse SC QD): 15.4 ± 7.8 days | Mean Onset (IFN-β 50,000 IU/mouse SC QD): 14.9 ± 7.3 days | Mortality (IFN-β 50,000 IU/mouse SC QD): 0/13 | % inhibition 1 (incidence) (IFN-β 50,000 IU/mouse SC QD): 15.4% | % inhibition 2 (MMS) (IFN-β 50,000 IU/mouse SC QD): 18.8% | % inhibition 3 (GMS); Activity (IFN-β 50,000 IU/mouse SC QD): 15% | % inhibition 3 (GMS); Activity [1]: 15% | GMS value (group mean score) [1]: 1.7 | GMS value (group mean score) (IFN-β 500,000 IU/mouse SC QD): 0.9 ± 0.7 | Incidence (IFN-β 500,000 IU/mouse SC QD): 12/13 | MMS value (mean maximal score) (IFN-β 500,000 IU/mouse SC QD): 1.7 ± 1.0 | Mean Duration (IFN-β 500,000 IU/mouse SC QD): 13.9 ± 6.1 days | Mean Onset (IFN-β 500,000 IU/mouse SC QD): 14.7 ± 5.1 days | Mortality (IFN-β 500,000 IU/mouse SC QD): 0/13 | GMS value (group mean score) [2]: 1.7 ± 0.4 | Incidence [2]: 13/13 | MMS value (mean maximal score) [2]: 3.1 ± 0.3 | Mean Duration [2]: 17.5 ± 1.7 days | Mean Onset [2]: 12.9 ± 1.3 days | Mortality [2]: 0/13 | % inhibition 1 (incidence) [2]: 0% | % inhibition 2 (MMS) [2]: 3.1% | % inhibition 3 (GMS) [2]: 15.0% | % inhibition 1 (incidence) (IFN-β 500,000 IU/mouse SC QD): 7.7% | % inhibition 2 (MMS) (IFN-β 500,000 IU/mouse SC QD): 46.9% | % inhibition 3 (GMS); Activity (IFN-β 500,000 IU/mouse SC QD): 55% | % inhibition 3 (GMS); Activity [3]: 55% | GMS value (group mean score) [3]: 0.9 | GMS value (group mean score) [4]: 1.3 ± 1.1 | Incidence [4]: 10/13 | MMS value (mean maximal score) [4]: 2.3 ± 1.7 | Mean Duration [4]: 12.2 ± 8.7 days | Mean Onset [4]: 16.5 ± 8.4 days | Mortality [4]: 0/13 | % inhibition 1 (incidence) [4]: 23.1% | % inhibition 2 (MMS) [4]: 28.1% | % inhibition 3 (GMS) [4]: 35.0%
